Consider nine molecules from patent publication US9402826B2, “Neuronal pain pathway modulators” (The Trustees of Columbia University in the City of New York, priority 2006, dated 2016).

Sequences of proteins named here, by UniProt entry; tags and fusion partners are left off.
UniProt Q13976, whole entry: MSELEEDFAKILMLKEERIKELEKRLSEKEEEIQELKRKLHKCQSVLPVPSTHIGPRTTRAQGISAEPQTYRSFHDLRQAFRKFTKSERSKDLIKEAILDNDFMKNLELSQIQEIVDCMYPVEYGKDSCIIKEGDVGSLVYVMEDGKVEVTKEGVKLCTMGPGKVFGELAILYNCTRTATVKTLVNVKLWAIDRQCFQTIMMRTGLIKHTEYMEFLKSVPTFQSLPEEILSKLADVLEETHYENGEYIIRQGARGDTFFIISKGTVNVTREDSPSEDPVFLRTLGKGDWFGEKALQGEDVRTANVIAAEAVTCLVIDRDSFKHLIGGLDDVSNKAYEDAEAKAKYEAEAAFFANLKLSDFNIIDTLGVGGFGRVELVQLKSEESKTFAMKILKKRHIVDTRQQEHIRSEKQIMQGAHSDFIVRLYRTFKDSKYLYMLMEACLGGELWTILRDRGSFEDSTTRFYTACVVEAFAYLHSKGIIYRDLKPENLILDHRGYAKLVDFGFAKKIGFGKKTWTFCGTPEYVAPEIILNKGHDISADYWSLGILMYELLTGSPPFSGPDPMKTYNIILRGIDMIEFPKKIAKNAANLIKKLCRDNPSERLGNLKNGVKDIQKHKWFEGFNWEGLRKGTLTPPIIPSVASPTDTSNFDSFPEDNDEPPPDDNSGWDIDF

Where two headings read alike, the source gives them in different places.

One experiment addresses PKG (Homo sapiens, UniProt Q13976). Briefly: PKG inhibition: transfer of gamma-32P from ATP to peptide substrate.
The target of another experiment is PKG 1α (Homo sapiens, UniProt Q13976). Briefly: PKG 1α activity towards BPDEtide. The note with it: read-out: IC50 PKG 1α; 30 μM ATP; BPDEtide substrate.
[1] abbreviates: read-out: PKG inhibition (IC50), Table 3.
The mark [2] stands for this setting: read-out: PKG inhibition (IC50), Table 6.
The mark [3] stands for this setting: read-out: Activity: IC50 vrs PKG, Series B, 30 μM ATP.
The mark [4] stands for this setting: read-out: PKG inhibition (IC50), Table 4.

Consider `O=C(O)c1cccc(O)c1C(=O)c1c(O)cc(C(=O)N2CCCN(C(=O)c3ccc(O)cc3)CC2)cc1O`, for which the half-maximal inhibitory concentration (IC50) at PKG (setting [1]) is above 10 µM.
Take `O=C(O)c1cccc(O)c1C(=O)c1c(O)cc(C(=O)N2CCN(C(=O)c3ccc(O)cc3)CC2)cc1O`: on PKG (setting [1]), the IC50 is above 10 µM.
As for `Cc1n[nH]c2ccc(C(=O)N[C@@H]3CNC[C@H]3NC(=O)c3ccc4[nH]nc(C)c4c3)cc12`, the IC50 at PKG (setting [2]) is above 10 µM.
Consider `O=C(N[C@@H]1CNC[C@H]1NC(=O)c1ccc2[nH]ncc2c1)c1ccc2[nH]ncc2c1`, for which the IC50 on PKG (setting [2]) amounted to 1 µM.
For `O=C(N[C@@H]1CNC[C@H]1NC(=O)c1ccc2[nH]nc(-c3ccc(F)cc3)c2c1)c1ccc2[nH]nc(-c3ccc(F)cc3)c2c1`, the half-inhibitory concentration (IC50) at PKG (setting [2]) is above 10 µM.
Take `COCOc1ccc(OC)c(F)c1C(=O)c1ccc(C(=O)O[C@@H]2CCC[C@H]2NC(=O)c2ccc(O)cc2)cc1` (relative stereo): the IC50 on PKG (setting [3]) and at PKG (setting [4]) was 8 µM in each case.
On to `O=C(NC1CCN(C(=O)c2ccc(O)cc2)C1)c1cc(O)c(C(=O)c2c(O)cccc2C(=O)O)c(O)c1` (stereo not shown), for which the concentration for half-maximal inhibition (IC50) was at least 5 µM on PKG (setting [3]) and above 5 µM on PKG (setting [1]).
As for `COc1ccc2onc(-c3ccc(C(=O)O[C@@H]4CNC[C@H]4NC(=O)c4ccc(O)cc4)cc3)c2c1F` (relative stereo), the IC50 at PKG (setting [4]) was above 10 µM.
With `O=C(C=CNc1ccc2[nH]ncc2c1)c1ccco1`, on PKG 1α, the IC50 amounted to 2 µM. The “inhibition of PKG activity” value at PKG (10 μM compound, average of two independent experiments) came to 100%. Moreover, the “inhibitory activity on PKG (in words)” value on PKG (1 and 10 micromolar compound (FIGS. 10A-B)) is “significant inhibitory activity”.
